According to US20030215462A1, “Use of UGT inhibitors to increase bioavailability” (priority 2001, published 2003):

Columns and labels:
UGT2B15 = biological target: T1, UGT2B15 (Homo sapiens, UniProt P54855); assay: Substrate glucuronidation by recombinant UGT2B15; conditions: UGT2B15 Supersomes; 2ME2 50 μM
T1 sequence (P54855 24-530): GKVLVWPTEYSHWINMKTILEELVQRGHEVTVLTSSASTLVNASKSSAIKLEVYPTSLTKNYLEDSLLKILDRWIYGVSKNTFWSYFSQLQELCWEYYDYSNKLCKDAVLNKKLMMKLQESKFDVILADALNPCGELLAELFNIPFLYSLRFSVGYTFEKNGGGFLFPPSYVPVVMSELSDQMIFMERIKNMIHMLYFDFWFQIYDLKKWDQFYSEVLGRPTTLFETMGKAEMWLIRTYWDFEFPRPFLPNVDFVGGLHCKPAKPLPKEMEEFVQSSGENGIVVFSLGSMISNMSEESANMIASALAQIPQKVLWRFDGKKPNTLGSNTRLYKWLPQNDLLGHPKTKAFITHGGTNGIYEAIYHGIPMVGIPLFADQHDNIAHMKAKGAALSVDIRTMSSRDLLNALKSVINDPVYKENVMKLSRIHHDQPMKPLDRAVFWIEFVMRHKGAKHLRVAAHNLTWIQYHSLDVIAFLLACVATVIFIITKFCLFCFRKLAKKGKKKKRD

UGT1A4 = biological target: T2, UGT1A4 (Homo sapiens, UniProt P22310); assay: Substrate glucuronidation by recombinant UGT1A4; conditions: UGT1A4 Supersomes; 2ME2 50 μM
T2 sequence (P22310 29-534): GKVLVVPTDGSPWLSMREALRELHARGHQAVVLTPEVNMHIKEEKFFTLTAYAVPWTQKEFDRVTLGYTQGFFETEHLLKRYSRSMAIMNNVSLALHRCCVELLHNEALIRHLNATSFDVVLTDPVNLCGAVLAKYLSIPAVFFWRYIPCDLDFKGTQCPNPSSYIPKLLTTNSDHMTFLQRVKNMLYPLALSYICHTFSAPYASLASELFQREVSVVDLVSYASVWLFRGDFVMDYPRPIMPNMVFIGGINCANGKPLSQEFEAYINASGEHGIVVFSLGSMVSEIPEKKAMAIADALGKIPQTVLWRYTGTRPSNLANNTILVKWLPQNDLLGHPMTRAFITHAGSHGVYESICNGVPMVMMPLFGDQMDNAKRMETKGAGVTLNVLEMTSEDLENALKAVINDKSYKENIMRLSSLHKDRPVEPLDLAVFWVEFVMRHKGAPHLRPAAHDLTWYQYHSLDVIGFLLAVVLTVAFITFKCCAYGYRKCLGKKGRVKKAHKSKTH

UGT1A10 = biological target: T3, UGT1A10 (Homo sapiens, UniProt Q9HAW8); assay: Substrate glucuronidation by recombinant UGT1A10; conditions: UGT1A10 Supersomes; 2ME2 50 μM
T3 sequence (Q9HAW8 26-530): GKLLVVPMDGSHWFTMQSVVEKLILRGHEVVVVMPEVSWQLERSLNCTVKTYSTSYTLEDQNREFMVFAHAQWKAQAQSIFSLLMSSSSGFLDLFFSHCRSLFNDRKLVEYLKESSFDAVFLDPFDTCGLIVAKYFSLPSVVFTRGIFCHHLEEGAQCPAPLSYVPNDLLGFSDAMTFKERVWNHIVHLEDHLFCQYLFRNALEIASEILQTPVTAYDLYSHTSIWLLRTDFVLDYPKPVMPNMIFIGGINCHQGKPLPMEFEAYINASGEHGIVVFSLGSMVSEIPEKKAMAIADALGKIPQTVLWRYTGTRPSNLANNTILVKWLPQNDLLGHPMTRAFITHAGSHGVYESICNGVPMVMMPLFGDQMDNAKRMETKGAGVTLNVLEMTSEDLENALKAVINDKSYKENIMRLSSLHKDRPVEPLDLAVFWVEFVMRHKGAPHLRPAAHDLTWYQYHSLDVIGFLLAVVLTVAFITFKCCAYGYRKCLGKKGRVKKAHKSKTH

UGT1A1 = biological target: T4, UGT1A1 (Homo sapiens, UniProt P22309); assay: Substrate glucuronidation by recombinant UGT1A1; conditions: 2ME2 50 μM
T4 sequence (P22309 26-533): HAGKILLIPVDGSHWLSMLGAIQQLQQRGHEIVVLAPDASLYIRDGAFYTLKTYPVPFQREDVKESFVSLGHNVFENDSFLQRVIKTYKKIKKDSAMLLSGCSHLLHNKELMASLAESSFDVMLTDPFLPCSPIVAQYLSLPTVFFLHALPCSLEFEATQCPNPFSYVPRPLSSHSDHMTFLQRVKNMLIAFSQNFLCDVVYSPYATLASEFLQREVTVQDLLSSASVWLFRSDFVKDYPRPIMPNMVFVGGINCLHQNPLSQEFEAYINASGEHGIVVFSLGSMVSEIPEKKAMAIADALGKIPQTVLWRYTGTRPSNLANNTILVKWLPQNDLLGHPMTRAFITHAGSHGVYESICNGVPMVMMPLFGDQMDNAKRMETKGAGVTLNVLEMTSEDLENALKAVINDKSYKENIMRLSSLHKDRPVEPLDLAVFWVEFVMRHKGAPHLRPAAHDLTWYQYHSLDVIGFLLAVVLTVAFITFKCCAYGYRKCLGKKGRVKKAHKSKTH

UGT1A7 = biological target: T5, UGT1A7 (Homo sapiens, UniProt Q9HAW7); assay: Substrate glucuronidation by recombinant UGT1A7; conditions: UGT1A7 Bacculosomes; 2ME2 50 μM
T5 sequence (Q9HAW7 26-530): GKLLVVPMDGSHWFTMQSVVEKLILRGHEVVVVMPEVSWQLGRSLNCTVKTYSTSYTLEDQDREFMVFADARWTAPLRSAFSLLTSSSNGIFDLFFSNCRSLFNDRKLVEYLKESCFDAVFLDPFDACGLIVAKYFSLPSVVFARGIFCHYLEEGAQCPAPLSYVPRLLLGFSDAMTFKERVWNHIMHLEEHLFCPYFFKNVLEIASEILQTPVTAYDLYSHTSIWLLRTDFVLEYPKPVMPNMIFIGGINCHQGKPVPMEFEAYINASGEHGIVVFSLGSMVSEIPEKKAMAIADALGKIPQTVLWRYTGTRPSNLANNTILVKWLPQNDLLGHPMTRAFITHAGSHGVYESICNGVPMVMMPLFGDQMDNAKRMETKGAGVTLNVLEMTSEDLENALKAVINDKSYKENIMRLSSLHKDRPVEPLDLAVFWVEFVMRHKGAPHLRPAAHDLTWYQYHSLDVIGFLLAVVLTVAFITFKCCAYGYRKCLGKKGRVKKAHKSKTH

With `COc1cc2c(cc1O)CC[C@@H]1[C@@H]2CC[C@]2(C)[C@@H](O)CC[C@@H]12` [2ME2, 2-Methoxyestradiol] the “relative metabolite level MG1” value (UGT2B15) was “<LOQ”, the “relative metabolite level MG2” value (UGT2B15) was 1.9 ± 0.1 and the “relative metabolite level MG1” value (UGT1A4) was “<LOQ”. The “relative metabolite level MG2” value (UGT1A4) was 6.1 ± 0.1, the “rate of 2ME2 loss” value (UGT1A10) was 3056 ± 43 pmol/min/mg and the “relative metabolite level MG1” value (UGT1A10) was 212 ± 1. For the same compound, the “relative metabolite level MG2” value (UGT1A10) was “<LOQ”, the “rate of 2ME2 loss” value (UGT1A1; UGT1A1) was 1406 ± 156 pmol/min/mg and the “relative metabolite level MG1” value (UGT1A1; UGT1A1 Bacculosomes) was 46 ± 1. The “relative metabolite level MG2” value (UGT1A1; UGT1A1 Bacculosomes) was “<LOQ”, the “ratio MG1/MG2” value (UGT1A1; UGT1A1 Supersomes) was 68 and the “relative metabolite level MG1” value (UGT1A1; UGT1A1 Supersomes) was 90 ± 5. For the same compound, the “relative metabolite level MG2” value (UGT1A1; UGT1A1 Supersomes) was 1.3 ± 0.1, the “relative metabolite level MG1” value (UGT1A7) was 2.6 ± 0.1 and the “relative metabolite level MG2” value (UGT1A7) was “<LOQ”.
